This is a selection; strong and weak results do not stand in their true shares. Records with an inconclusive call do not appear. Active and inactive are the calls of the source. Calls come from the whole dose curve; as a rule, active = well fitted inhibition curve with a large enough effect; inconclusive = small, poorly fitted or top-dose-only effect; inactive = no such curve, though single readings can be large or run the other way.

The nature of this assay: Primary qHTS assay for inhibitors of alpha-synuclein gene (SNCA) expression.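 Note: plate controls were DMSO cells for no effect and cell-free wells for full effect; nearly all actives have a fitted effect of over 45% in size.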 Particulars: HEK-293 SNCA-luciferase knock-in, luminescence, 24 h. From the text:
Assay Submitter (PI): Daniel R. Scoles Ph.D.
Department of Neurology, University of Utah, Salt Lake City, Utah
Accumulation of alpha-synuclein is a main underlying pathological feature of Parkinson's disease (PD) and alpha-synucleinopathies, for which lowering expression of the alpha-synuclein gene (SNCA) is a potential therapeutic avenue. Using a cell-based luciferase reporter of SNCA expression we performed a quantitative high throughput screen (qHTS) of 155,885 compounds in dose response. The screening assay was generated using genome editing to insert the luciferase gene downstream and in frame of the SNCA gene in HEK-293 cells (1). A viability counterscreen using GF-AFC was used to eliminate cytotoxic and false positive compounds. After in silico analysis (clustering, removal of frequent hitter nuisance chemotypes), inhibitor compounds from the primary screen were selected for follow up and re-tested at 11-doses in the SNCA-luc cells (luciferase and GF-AFC confirmation), and in CMV-luc expressing cell line to flag general transcriptional repressors.
Described herein are the results of the primary screen for SNCA inhibitors; decrease in luciferase signal (inhibition of the SNCA gene expression) is the desired output for this assay.
1. Dansithong, W., Paul, S., Scoles, D. R., Pulst, S. M., and Huynh, D. P. (2015) Generation of SNCA Cell Models Using Zinc Finger Nuclease (ZFN) Technology for Efficient High-Throughput Drug Screening. PLoS ONE 10, e0136930.
SEQUENCE No. (e.g., 1, 2, 3, etc.); […] (e.g., Cells, Incubation, Reagent, etc.); VALUE; DESCRIPTION
1; Cells; 4 uL; Dispense 1500 HEK-293-SNCA-luc cells/well into Greiner 1536-well white / solid bottom tissue culture treated plate. The plate was covered with metal lids with gas-exchange holes.
2; Incubate; 24 hours; Incubate at 37C, 5% CO2, 95% RH.
3; Compounds; 23 nL; Compounds and controls were transferred via a Kalypsys Pin Tool (Wako USA) equipped with a 1536-slotted pin array. The plate was covered with metal lids with gas-exchange holes.
4; Incubate; 24 hours; Incubate at 37C, 5% CO2, 95% RH.
5; Dispense; 1 uL; Dispense Gly-Phe-7-amino-4-trifluoromethylcoumarin (GF-AFC, prepared at 125 uM in PBS) was added. The plate was covered with metal lids with gas-exchange holes.
6; Incubate; 30 min; Incubate at 37C, 5% CO2.
7; Detector; Fluorescence; Measure fluorescence with ViewLux microplate reader (PerkinElmer) equipped with 405/10 excitation and 540/25 emission filters.
8; Dispense; 3 uL; Dispense ONE-Glo ([…]) lucifase detection reagent was added to each well. […]
10; Detector; Luminescence; Measure luminescence with ViewLux microplate reader (PerkinElmer) equipped with clear filters. […]
10; Signals were analyzed, and dose-response curves were fit using the Hill equation. […]
Background: Quantitative high-throughput screening tests each substance at several concentrations.

As to `CCC(=O)N(c1ccccc1)C1(COC)CCN(CCc2cccs2)CC1`, the activity change, negative = inhibition (at 57.2 µM (top of the series)) is inactive: -25.5%.

Turning to `CCC(=O)N(c1ccccc1)C1(COC)CCN(CCn2nnn(CC)c2=O)CC1`, the activity change, negative = inhibition (at 57.2 µM (top of the series)) is inactive: 51.8%.

For `CN(CCCl)CCCl`, the activity change, negative = inhibition is inactive: 3.61% (at 25.6 µM (top of the series)) and inactive: -18.6% (at 57.2 µM (top of the series)).

Source of the values: PubChem BioAssay AID1671194 (National Center for Advancing Translational Sciences (NCATS), 2021).
